## Ab-14 heavy chain CDR variants: yeast mating affinities

The measurements come from Li et al. 2023 (doi:10.1038/s41467-023-39022-2) through the FLAb antibody collection.

Antigen: PDVDLGDISGINAS, a 14-residue peptide of the SARS-CoV-2 spike HR2 region.

Parent scFv Ab-14: VH joined to VL by a (GGGGS)3 linker. Changes lie in the heavy chain CDRs alone.
VH: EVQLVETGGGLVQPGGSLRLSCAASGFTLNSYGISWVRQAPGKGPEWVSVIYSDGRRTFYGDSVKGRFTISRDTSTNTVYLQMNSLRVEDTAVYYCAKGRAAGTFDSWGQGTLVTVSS
VL: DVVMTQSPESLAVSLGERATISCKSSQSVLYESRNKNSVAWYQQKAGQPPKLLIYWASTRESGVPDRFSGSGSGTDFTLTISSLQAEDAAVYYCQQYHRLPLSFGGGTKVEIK

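Phage display of a naive human antibody library on the peptide gave the parent. Designed CDR sequences, proposed from the first random library and measured here. Group labels follow the data file (Ctrl: baseline library sampled from a position-specific scoring matrix, with some repeated check sequences; Rand: our label for a block that the file lists under HC and that is probably the random mutants of the ten best first-round binders; En: ensemble of fine-tuned language models; GP: Gaussian process model; GPLM: also part of the Gaussian process libraries; HC: hill climbing; Gen: genetic algorithm; Gibbs: Gibbs sampling; a sequence that several methods proposed may carry one label only). The scFvs were displayed on barcoded MATa yeast, the peptide on MATalpha yeast. After mating in shaken culture at 30 °C for 16 h, diploids were selected and their barcode pairs sequenced. Read counts were normalised to the haploid input and turned into Kd by a linear fit to BCL2-family pairs of known affinity, for each replicate. The assay was run in six technical replicates.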

Variants are written as CDR1, CDR2 and CDR3 of the heavy chain (limits as in the source). Parent: GFTLNSYGIS, VIYSDGRRTFYGDSVK, GRAAGTFDS. Affinities are written as log10 Kd with Kd in nM; a lower number is a better binder. The mean shown is taken over the replicates in which the pair was detected. Where no diploid with the target was found in any replicate, the entry reads "not detected": below detection, most likely a poor binder, though not proof of it. Empty control strains, which show no peptide, gave a signal in 1% of pairings with all heavy chain designs; the median was 2.08 and 95% of these signals were weaker than 0.84. No background was subtracted.

CDR-H1	CDR-H2	CDR-H3	group	log10 Kd (nM), mean	detected
GFWLNSYGIS	VIYSDGRRTFYIDSVK	GQTAGTFDS	GP_Gen	not detected	0 of 6
GFDLNEYGIS	VIYADGMRTSYADDVK	GNTAGTFDV	En_Gen	-0.18	6 of 6
GFTLNRYGIS	VIYSDGRRTFYGDSVK	GQLAGTFDS	GPLM_HC	not detected	0 of 6
GFSLNEYGIS	VIYSDGRRTFYVDSVK	GRTAGTFDS	GPLM_Gen	0.14	6 of 6
GFQLNDYGIS	VIYSDGRRTFYIDHVK	GKAAGTFDS	GP_HC	1.11	2 of 6
GFTLDSYGIS	VIYADGRRTFYGDSVK	GRAPGTFDS	Ctrl	-0.23	6 of 6
GFDLNEYGIS	VIYADGRRTFYADSVK	GNVAGTFFD	En_HC	-0.34	6 of 6
RFNLKEYGIS	VIYSDGRRTFYGDSVK	GQAAGTFDS	Ctrl	2.15	1 of 6
GFNLDEYGIS	VIYADGMRSMYADSVK	GGISGWFFI	En_Gibbs	not detected	0 of 6
GFDLNEYGIS	VIYADGRRTYYVDSVK	GVNAGTFDS	En_HC	-0.56	6 of 6
GFSLNSYGIS	VIYSDGRRTFYGDSVK	GKAAGRFLS	Ctrl	not detected	0 of 6
GFTLNSYGIS	VIYSDGRRTQYGPSVK	GRAAITDDS	Ctrl	not detected	0 of 6
MFNLNSYGIS	VIYSDGRRTFYGDSVK	GRQAGTFDS	GP_Gen	not detected	0 of 6
GFELNSYGIS	VIYSDGLRTFYTDSVK	GRTAGTFDS	GP_Gibbs	0.47	6 of 6
EFTLNEYGIS	VIYSDGRRTFYRDSVK	GRTAGTFDS	GP_HC	1.38	3 of 6
HFTLNSYGIS	VIYSDGRRTFYGDTVK	GRAAGTFDS	Ctrl	2.30	1 of 6
GFDLENYGIS	VIYADGRRTFYADKVK	GENAGTFDI	En_HC	0.08	6 of 6
GFTLNSYGIS	VIYSDGRRDFYLDSVK	RRAAKTFDS	Ctrl	not detected	0 of 6
GFTLNSYGIS	VIYSDGRRTFYSDSVK	GTAGGTFDV	GP_HC	1.57	5 of 6
GFDLNEYGIS	VIYADGVRTFYADNVK	GEVAGTFDV	En_HC	0.15	6 of 6
GEDLDEYGVS	VIYADGRKQSYSNSVK	GAIAGNFDA	En_Gibbs	not detected	0 of 6
GFTLDSYGIS	VIYSDGRRTFYGDSVK	GRAAGTFRV	GP_HC	not detected	0 of 6
GFDLNEYGIS	VIYADGRRTVYADSVK	GNVAGTFDQ	En_Gen	-0.98	6 of 6
GFSLNSYGIS	VIYSDGRRTFYGDSVK	GNTAGTFDR	GP_Gibbs	-0.04	6 of 6
GFTLNMYGIS	VIYSDGRRTFYGDSVK	GLAAGTWDS	Ctrl	not detected	0 of 6
GFDLNEYGIS	VIYADGQRTAYADSVK	GTVAGTFDS	En_HC	-0.35	6 of 6
GFTLNSYGIS	VIYSDGRRTFYGNSVK	GRAAATFDS	Ctrl	not detected	0 of 6
GFTLNSYGIS	VIYSDGRRTFYADDVK	GRVAGTFDV	GP_Gibbs	1.48	2 of 6
GFSLNSYGIS	VIYSDGRRTFYGDSVK	GRTAGTFDR	GPLM_Gen	0.90	6 of 6
GFTLNEYGIS	VIYSDGRRTFYIDSVK	GPAAGTFDS	Ctrl	1.93	2 of 6
GFDLNEYGIS	VIYADGQRTAYADSVK	GNVAGTFDF	En_Gen	-0.85	6 of 6
GFSLNSYGIS	VIYSDGRRTFYIDSVK	GQVAGTFDS	GPLM_Gen	0.71	3 of 6
GFTLNDYGIS	LIYSDGRKTFYGDKVK	GRAAGTFDS	Ctrl	not detected	0 of 6
GFNLNSYGIS	VIYSDGYRTFYGDSVK	GRAAGTFDW	Ctrl	not detected	0 of 6
GFMLNSYGIS	VIYSDGRRTFYGDSVK	GRAAGTFDQ	Ctrl	not detected	0 of 6
GFTLNSYGIS	VIYSDGRRTFYGDSVK	GRWAGDFDS	Ctrl	2.67	1 of 6
GKLLDEYGIS	VIYADGMRMVYADSVK	GNLTDTLLV	En_Gibbs	not detected	0 of 6
GFDLNEYGIS	VIYADGMRTQYIDSVK	GEVAGTFDA	En_HC	0.35	6 of 6
GFSLDEMGIS	VIYADGQRTSYVDNVK	GVQGSRVSL	En_Gibbs	1.01	6 of 6
GFDLNSYGIS	VIQSDGRRFFYGDSVK	GRAANWFRS	Rand	not detected	0 of 6
GFDLNEYGIS	VIYADGKRTFYADSVK	GQAAGTFDV	En_HC	3.14	3 of 6
EFDLNNYGIS	VIYADGLRTAYVTNFK	GINAGTFTS	En_Gibbs	not detected	0 of 6
GFSLNSYGIS	VIYSDGRRTFYQDSVK	GRWAGTFDS	GP_Gibbs	1.35	5 of 6
GFNLNEVGIS	VIYADGLRSAYVDAVK	GGVVDVDFV	En_Gibbs	not detected	0 of 6
GFSLNNYGIS	VIYSDGRRTFYVDSVK	GQAAGTFDS	GPLM_Gen	0.98	5 of 6
WFTLNDYGIS	VIYSDGRRTAYIDSVK	GRAAGTFDS	GP_HC	not detected	0 of 6
GFSLNSYGIS	VIYSDGRRTFYGDSVK	GQTAGTFDQ	GPLM_Gen	0.64	6 of 6
GFDLNEYGIS	VIYADGSRTAYIDSVK	GNQAGTFDV	En_Gen	-0.15	6 of 6
GFDLDEYGIS	VIYADGRRVAILESVK	GKIAGTLDA	En_Gibbs	-0.30	6 of 6
GFDLNEYGIS	VIYADGRRTFYSDSVK	GQAAGTFDS	En_HC	-0.44	6 of 6

A selection of 5 entries from above:

| CDR-H1 | CDR-H2 | CDR-H3 | group | log10 Kd (nM), mean | detected |
|---|---|---|---|---|---|
| EFDLNNYGIS | VIYADGLRTAYVTNFK | GINAGTFTS | En_Gibbs | not detected | 0 of 6 |
| GFTLDSYGIS | VIYSDGRRTFYGDSVK | GRAAGTFRV | GP_HC | not detected | 0 of 6 |
| GFNLDEYGIS | VIYADGMRSMYADSVK | GGISGWFFI | En_Gibbs | not detected | 0 of 6 |
| GFDLNEYGIS | VIYADGRRTFYSDSVK | GQAAGTFDS | En_HC | -0.44 | 6 of 6 |
| GFDLNEYGIS | VIYADGQRTAYADSVK | GTVAGTFDS | En_HC | -0.35 | 6 of 6 |

In the paper, a design with two or fewer of six values counts as a poor binder. The range of this assay differs from that of the first round, and the authors advise against merging the two. Of ten entries with the parent sequence, four were seen in most replicates (averages 0.34 to 2.37), three in one and three in none, so single entries are noisy.